Measurements: paper PMC4949440 (Scientific Reports, 2016)

Assays:
HL-60 cells = experiment: Cell viability (MTT), HL-60; assay type: cell-based, human; conditions: read-out: IC50 HL-60, 24 h, mean ± SD of three independent experiments
GES-1 cells = experiment: Cell viability (MTT), GES-1 normal cells; assay type: cell-based; conditions: read-out: IC50 GES-1, 24 h, mean ± SD of three independent experiments
SGC7901 cells = experiment: Cell viability (MTT), SGC7901; assay type: cell-based; conditions: read-out: IC50 SGC7901, 24 h, mean ± SD of three independent experiments
MCF-7 cells = experiment: Cell viability (MTT), MCF-7; assay type: cell-based; conditions: read-out: IC50 MCF-7, 24 h, mean ± SD of three independent experiments

Work on `O=[As]c1ccc(N=Cc2c[nH]c3ccccc23)cc1` (stereo not shown) yielded an IC50 (HL-60 cells) of 13.9 µM, an IC50 (GES-1 cells) of 83.3 µM and an IC50 (SGC7901 cells) of 155 µM. The IC50 (MCF-7 cells) was 69 µM.
